Literature values as cited in patent US20130204238A1, “COMBINATION THERAPY” (FOLLICA, INC, priority 2010, published 2013).

By UniProt entry, the sequences of proteins in these tests, tags left out.
UniProt P49841, whole entry, species assumed: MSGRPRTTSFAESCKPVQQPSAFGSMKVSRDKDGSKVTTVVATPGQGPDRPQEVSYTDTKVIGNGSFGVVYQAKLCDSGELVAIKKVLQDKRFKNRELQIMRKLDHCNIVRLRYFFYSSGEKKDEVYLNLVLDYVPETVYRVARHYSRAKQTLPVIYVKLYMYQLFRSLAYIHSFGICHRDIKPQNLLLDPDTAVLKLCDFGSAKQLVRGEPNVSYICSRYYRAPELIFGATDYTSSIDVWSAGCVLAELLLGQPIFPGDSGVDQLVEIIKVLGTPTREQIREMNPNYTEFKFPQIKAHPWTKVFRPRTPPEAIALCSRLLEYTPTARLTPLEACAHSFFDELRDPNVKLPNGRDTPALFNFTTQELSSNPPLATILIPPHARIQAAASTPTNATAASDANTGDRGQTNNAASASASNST

Target: GSK3β (Homo sapiens, UniProt P49841)
Conditions: compared with other indirubin derivatives

For indirubin 3′-monoxime, which toxicity is on record?
Its toxicity is “reduced toxicity”.
